We go through one substance from patent US4179467A, “Dopamine hydroxylase inhibiting 2-amino-cyclopent-1-ene-1-thiocarboxylic acid-disulfides” (Richter Gedeon Vegyeszeti Gyar Rt., priority 1976, dated 1979).

Where “and” joins values, the source holds several entries; their conditions need not be identical. Equal values may be shown once. Read-outs that look alike come from different tables or passages of the source.

The subject of the data set is mice. The class given is in vivo.

On to Dopastine, for which the 50% lethal dose (LD50) – broadly, the dose expected to kill half of the subjects tested – is 250 to 500 mg/kg and 460 mg/kg (i.p.); 750 mg/kg (p.o.).
